The source of these data is ChEMBL document CHEMBL2057200, “Design and synthesis of potent antagonists containing rigid spirocyclic privileged structures for the CGRP receptor” (Bioorg Med Chem Lett, 2012).

SMILES strings stand for the structures.

The species named for the assay is Homo sapiens. The assay is described as follows: Inhibition of CGRP-induced dilation in potassium chloride pre-contracted ex vivo migraine model of human intracranial artery rings. It is filed as functional, tissue-based.

Consider `O=C1Nc2ccccc2C2(CCN(C(=O)N[C@H](Cc3csc4ccccc34)C(=O)N3CCC(N4CCCCC4)CC3)CC2)N1`, for which the inhibition entry is “Dose-dependent effect”. Consider `O=C(N[C@H](Cc1csc2ccccc12)C(=O)N1CCC(N2CCCCC2)CC1)N1CCC2(CC1)N=C(c1ccccc1)NC2=O`, for which the inhibition entry is “Dose-dependent effect”.
